This is a selection; strong and weak results do not stand in their true shares. Calls of active or inactive are those of the source.
assay: modulators of yeast start codon fidelity, primary screen, whole organism, S. cerevisiae, single point, plate reader (AID 602363);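 further: firefly luciferase made from a UUG start codon reports start codon fidelity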; settings: S. cerevisiae UUG-firefly luciferase reporter, luminescence/redox ratio; at 18.7 µM; hits give high values

SMILES	activity score
Cc1ccc(C)c(NP(C)(=O)Oc2ccccc2)c1 (configuration not stated)	inactive: -12.6%
Nc1cccc2c([As](=O)(O)O)cccc12	inactive: 8.04%
Cc1ccc(NCCc2c([N+](=O)[O-])cc([N+](=O)[O-])cc2[N+](=O)[O-])cc1	inactive: -12%
Cc1cc(C)cc(OP(C)(=O)Nc2ccccn2)c1 (configuration not stated)	inactive: -18%
CS(=O)(=O)c1ccc(Cl)c(NC(=O)COC(=O)C(O)(c2ccccc2)c2ccccc2)c1	inactive: 14.1%
COc1ccccc1OP(C)(=O)Nc1cccc(Br)c1 (configuration not stated)	inactive: -8.04%
O=[As](O)(O)c1cccnc1	inactive: -8.57%
O=C(OC1CN2CCC1CC2)c1ccc(Cl)cc1 (configuration not stated)	inactive: -11.7%
Cc1cc(C)cc(OP(C)(=O)Nc2ccc(C)cc2C)c1 (configuration not stated)	inactive: 0.034%
O=[As](O)(c1cccc(O)c1)c1cccc(O)c1	inactive: -13%
Cc1cccc(OCC(=O)OC2CN3CCC2CC3)c1 (configuration not stated)	inactive: -11.5%
NC(=O)Nc1ccc([As](=O)(O)O)cc1	inactive: -6.73%
CN(C(=O)Cc1ccc(Cl)c(Cl)c1)[C@H]1CC[C@@]2(CCCO2)C[C@@H]1N1CCCC1	inactive: -1.73%
CC1=NCCc2c1[nH]c1ccccc21.O=[N+]([O-])c1cc([N+](=O)[O-])c(O)c([N+](=O)[O-])c1	inactive: 6.29%
CN(C)C(=O)c1cc([N+](=O)[O-])cc2c1-c1c(cc([N+](=O)[O-])cc1[N+](=O)[O-])C2=O	inactive: -35.4%
O=[N+]([O-])c1ccc2c(c1)nnn2O	inactive: -8.17%
CCOP1(=S)c2c(C)nn(CCC#N)c2N=C(c2ccc(F)cc2)N1C (configuration not stated)	inactive: 2.19%
CN(C(=O)Cc1ccccc1)[C@@H]1CC[C@]2(CCCO2)C[C@H]1N1CCCC1	inactive: -7.83%
N#CCCN(C(=O)COC(=O)C(O)(c1ccccc1)c1ccccc1)c1ccc(F)cc1	inactive: 1.75%
O=P(Nc1nccs1)(c1ccccc1)c1nc2ccccc2s1 (configuration not stated)	inactive: 13.9%
O=C(O)c1cccc(Nc2c([N+](=O)[O-])cc([N+](=O)[O-])cc2[N+](=O)[O-])c1	inactive: -4.2%
CCOP1(=S)c2c(C)nn(CCC#N)c2N=C(c2ccccc2F)N1C (configuration not stated)	inactive: 5.35%
O=C(O)COc1ccc([As](=O)(O)O)cc1[N+](=O)[O-]	inactive: 13.1%
Nc1ccccc1[As](=O)(O)c1ccccc1	inactive: -7.49%
O=P1(Nc2ncccn2)COc2ccccc2OC1	inactive: -15.5%

SMILES	activity score
COc1ccccc1OP(C)(=O)Nc1c(C)cccc1C (configuration not stated)	inactive: -8.22%
NS(=O)(=O)c1cccc(NC(=O)COC(=O)C(O)(c2ccccc2)c2ccccc2)c1	inactive: 6.74%
O=P1(Nc2ccc(Br)cn2)COc2ccccc2OC1	inactive: 1.84%
O=[As](O)(c1cccs1)c1cccs1	inactive: -14.6%
Cc1ccc(OCC(=O)OC2CN3CCC2CC3)cc1 (configuration not stated)	inactive: -9.54%
Nc1cccc([As](=O)(O)c2ccccc2)c1	inactive: 6.14%
CCCOc1ccc(NP(C)(=O)Oc2ccc(Cl)cc2)cc1 (configuration not stated)	inactive: -8.21%
Cc1ccc(C(=O)OC2CN3CCC2CC3)cc1 (configuration not stated)	inactive: -18.4%
CC1CCC(C(C)C)C(OP(=O)(Nc2ccccn2)c2ccccc2)C1 (configuration not stated)	inactive: 7.38%
Cc1nn(-c2ccccc2)c2c1P(=O)(N1CCOCC1)N(C)C(c1ccccc1)=N2 (configuration not stated)	inactive: -7.26%
CCOC(=O)C(CC)C1=NC(C)(C)Cc2ccccc21.O=[N+]([O-])c1cc([N+](=O)[O-])c(O)c([N+](=O)[O-])c1 (configuration not stated)	inactive: 20%
O=[N+]([O-])c1cc([N+](=O)[O-])c(Nc2nnnn2CCO)c([N+](=O)[O-])c1	inactive: 11.6%
O=[N+]([O-])c1cc([N+](=O)[O-])c(-c2cnn(-c3ccccc3)c2)c([N+](=O)[O-])c1	inactive: -20.7%
Cc1nc2ccc3ccccc3c2s1.O=[N+]([O-])c1cc([N+](=O)[O-])c(O)c([N+](=O)[O-])c1	inactive: -4.11%
CN(C(=O)Cc1ccc(Cl)c(Cl)c1)[C@@H]1CCCC[C@H]1N1CCCC1	inactive: -20.7%
CC(C)/C=N\N=C(\N)N[N+](=O)[O-]	inactive: -11.4%
Cc1ccc(S(=O)(=O)N(CCCN)CCCc2c(C)nc(N)[nH]c2=O)cc1.O=[N+]([O-])c1cc([N+](=O)[O-])c(O)c([N+](=O)[O-])c1	inactive: -13.4%
CN(CCCl)Cc1cc(Cl)c(NC2=NCCN2)c(Cl)c1	inactive: -20.6%
Nc1ccc(CCCCOc2ccccc2)cc1.O=[N+]([O-])c1cc([N+](=O)[O-])c(O)c([N+](=O)[O-])c1	inactive: -27.8%
CCOP(=O)(NC(=NC(C)c1ccccc1)NC(C)c1ccccc1)OCC (configuration not stated)	inactive: -5.68%
O=[N+]([O-])c1cc([N+](=O)[O-])c(-n2nnc3ccccc32)c([N+](=O)[O-])c1	inactive: -7.09%
O=C(O)C(O)c1ccc(N(CCCl)CCCl)cc1.c1ccncc1 (configuration not stated)	inactive: -18.8%
CCC1=CC2Cc3nc4ccc(Cl)cc4c(N)c3C(C1)C2 (configuration not stated)	inactive: -1.62%
O=P1(Nc2ccccn2)COc2ccccc2OC1	inactive: -16.7%
CC(C)(C)C(=O)NC(Sc1ncccn1)C(Cl)(Cl)Cl (configuration not stated)	inactive: -2.52%

SMILES	activity score
CN(Cc1cccnc1)C(=O)COc1ccc(Cl)c(Cl)c1.O=[N+]([O-])c1cc([N+](=O)[O-])c(O)c([N+](=O)[O-])c1	inactive: -2.88%
Clc1n[nH]nc1-c1nn[nH][15n]1	inactive: -13.8%
O=P1(N(CCCl)CCCl)NCCC(C(F)(F)F)O1 (configuration not stated)	inactive: -10.2%
O=[N+]([O-])c1cc([N+](=O)[O-])c(O)c([N+](=O)[O-])c1.c1ccc(Oc2ccncc2)cc1	inactive: -2.27%
CCOC(=O)c1ccc(NC(=O)C(C)(CCl)SC)cc1 (configuration not stated)	inactive: 15.6%
CCOC(=O)c1ccc(NP(C)(=O)Oc2ccc(OC)cc2)cc1 (configuration not stated)	inactive: 2.85%
CSc1ccc(Nc2c([N+](=O)[O-])cc([N+](=O)[O-])cc2[N+](=O)[O-])cc1	inactive: -12.5%
CCOP(C)(=S)SCC(=O)NC(C)C(=O)O (configuration not stated)	inactive: -18.7%
O=C(OC1CN2CCC1CC2)c1cccc([N+](=O)[O-])c1 (configuration not stated)	inactive: -13%
CP(=O)(Nc1ccccn1)Oc1ccc(Cl)cc1 (configuration not stated)	inactive: -20.4%
CCC(C)N(CC(C)C)C(=S)SC(NC(C)=O)C(Cl)(Cl)Cl (configuration not stated)	inactive: -12.8%
CP(=O)(Oc1ccccc1)OC(c1ccccc1)C(F)(F)F (configuration not stated)	inactive: -11.5%
CP(=O)(Nc1ccc(SC(F)(F)F)cc1)Oc1ccc(Cl)cc1 (configuration not stated)	inactive: 2.35%
Cc1cccc(C)c1OP(C)(=O)Nc1ccc(SC(F)(F)F)cc1 (configuration not stated)	inactive: -11.7%
Cc1ccc(Nc2c([N+](=O)[O-])cc([N+](=O)[O-])cc2[N+](=O)[O-])cc1	inactive: -36.9%
COP1(=S)c2c(C)nn(CCC#N)c2N=C(c2ccc(F)cc2)N1C (configuration not stated)	inactive: -7.07%
O=C(Nc1ccncc1[N+](=O)[O-])c1ccc([N+](=O)[O-])cc1[N+](=O)[O-]	inactive: -14.4%
CCc1ccc(OP(C)(=O)N2CCN(c3ccc([N+](=O)[O-])cc3)CC2)cc1 (configuration not stated)	inactive: -13.2%
O=C(COc1ccccc1)OC1CN2CCC1CC2 (configuration not stated)	inactive: -12.8%
CCOC(=O)Nc1cccc([As](=O)(O)O)c1	inactive: -0.554%
CP(=S)(Nn1cnnc1)Oc1ccccc1 (configuration not stated)	inactive: -7.44%
O=[N+]([O-])c1ccc(Nc2ccc(Oc3ccc([N+](=O)[O-])cc3[N+](=O)[O-])cc2)c([N+](=O)[O-])c1	inactive: -21.5%
CC1CCNP(=O)(N(CCCl)CCCl)O1 (configuration not stated)	inactive: -18.9%
CCOC(=O)Nc1ccc([As](=O)(O)O)c(O)c1	inactive: -3.23%
O=C(O)C(=O)c1ccc(N(CCCl)CCCl)cc1.c1ccc(Nc2ccccc2)cc1	inactive: 0.303%

SMILES	activity score
CCCCOc1ccc(C(=O)NCC2(N3CCCCC3)CCCCC2)cc1OC	inactive: -0.845%
COP(=O)(OC)N1CC1c1ccccc1 (configuration not stated)	inactive: 10.8%
CC(C)c1ccc(OP(=O)(Nc2ccccn2)Oc2ccccc2F)cc1 (configuration not stated)	inactive: -8.03%
Cc1ccc(NP(C)(=O)Oc2ccccc2)c(C)c1 (configuration not stated)	inactive: -12.9%
COc1ccccc1OP(C)(=O)Nc1ccc(C)cc1 (configuration not stated)	inactive: -12.2%
ClCCSc1nnc(-c2cccnc2)o1	inactive: -16.7%
CCOC(=O)c1ccc(NP(C)(=O)Oc2ccccc2)cc1 (configuration not stated)	inactive: -18.4%
Cc1cc(C)cc(OP(C)(N)=O)c1 (configuration not stated)	inactive: 3.69%
COc1ccc(OP(C)(=O)Nc2cccc(F)c2)cc1 (configuration not stated)	inactive: -17.1%
O=C(OC1CN2CCC1CC2)c1cccc2[nH]cnc12 (configuration not stated)	inactive: -24.5%
CCN(CC)C(=S)SC(NC=O)C(Cl)(Cl)Cl (configuration not stated)	inactive: -9.9%
O=[N+]([O-])c1ccc(-c2cc([N+](=O)[O-])c(O)c([N+](=O)[O-])c2)cc1	inactive: 2.15%
O=[As](O)(c1ccc(O)cc1)c1ccccc1O	inactive: 0.325%
C[As](=O)(O)c1cccc(C(=O)O)c1	inactive: -19.5%
O=[N+]([O-])c1cc([N+](=O)[O-])c(Nc2cccnc2)c([N+](=O)[O-])c1	inactive: -1.7%
Cc1ccc(OP(=O)(Nc2ccc([N+](=O)[O-])cn2)Oc2ccc(C)cc2)cc1	inactive: -22.6%
COc1ccc(N/C(=N/P(=O)(N2CCOCC2)N2CCOCC2)N2CCOCC2)cc1	inactive: -2.4%
Cc1cc(=O)[nH]c(N[N+](=O)[O-])n1	inactive: -3.34%
O=C(OC1CN2CCC1CC2)C12CC3CC(CC(C3)C1)C2 (configuration not stated)	inactive: 1.26%
COc1cc(I)ccc1[As](=O)(O)O	inactive: 8.95%
O=P1(N(CCCl)CCCl)Nc2ccccc2N1	inactive: -23.8%
COc1ccc(CN2/C(=N\P(=O)(Oc3ccccc3)Oc3ccccc3)Cc3ccccc3C2C2CC2)cc1 (configuration not stated)	inactive: -14.6%

Source: PubChem BioAssay AID602363 (Broad Institute, 2012)
